The test system of the data set is L145K mutated biotinylated and Myc tagged human CD28 stalk region dimeric peptide.

Chains of the proteins cited; added tags and fusions are not shown. Chains listed by the source or under a name are the forms on record and can include a tag or linker.
L145K mutated biotinylated and Myc tagged human CD28 stalk region dimeric peptide, one chain, as listed by the source L145K: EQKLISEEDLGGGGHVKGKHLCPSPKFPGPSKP

For the substance Recombinant human MMP-13, the “percent of peptide cleaved (intact peptide by anti-Myc ELISA, 25 and 50 ng enzyme, 5 hours)” value is recorded as “the mutated peptide was not substantially cleaved (<5%) by either MMP-2 or MMP-13”.

These data come from patent US20260209355.
